Values of other authors, collected in patent US20060100168A1, “Method of treating cancer using adenosine and its analogs” (The Trustee of Boston University, priority 2002, published 2006).

Sequences of proteins named here, by UniProt entry; tags and fusion partners are left off.
UniProt P0DMS8, whole entry: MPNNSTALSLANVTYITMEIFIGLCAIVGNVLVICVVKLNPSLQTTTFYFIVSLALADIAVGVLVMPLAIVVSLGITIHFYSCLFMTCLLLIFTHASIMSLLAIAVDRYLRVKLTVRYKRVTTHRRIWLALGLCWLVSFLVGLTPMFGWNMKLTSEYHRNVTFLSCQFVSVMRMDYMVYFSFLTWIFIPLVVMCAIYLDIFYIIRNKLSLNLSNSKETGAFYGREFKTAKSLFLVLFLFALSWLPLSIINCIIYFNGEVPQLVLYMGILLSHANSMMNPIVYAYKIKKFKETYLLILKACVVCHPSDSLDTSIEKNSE

Molecular target: A3 adenosine receptor (Homo sapiens, UniProt P0DMS8)
Conditions: reported (ref. 34); cited from earlier work

CNC(=O)[C@H]1O[C@@H](n2cnc3c(NCc4cccc(I)c4)ncnc32)[C@H](O)[C@@H]1O [IB-MECA, N^6-(3-iodobenzyl)adenosine-5′-N-methyluronamide]
Affinity for A3 adenosine receptor: nanomolar range
